Measured values reported in patent publication US20090311283A1.

Experiments:
HLA-A*03 (human) = experiment: competitive inhibition of 125I-labelled probe peptide binding to purified HLA, gel filtration
HLA-A*6801 (human) = experiment: as above

IC50 (HLA-A*03 (human)): 18.3 µM | IC50 (HLA-A*6801 (human)): 0.471 µM
Binder: TTDLEAYFK (modifications not checked) [HBV X 105 peptide 1.0215 (…)]
